Assay results as given in patent US6344180B1 (BioNebraska, Inc., priority 1999, dated 2002).

Test: Side effects reported on questioning during the tests
Method: During the hyperglycemic clamp, glucose (50% w/v) was injected at time zero to increase the plasma glucose to 30 mmol/l (calculated as follows: (30 mmol/l−fasting plasma glucose)×35 mg glucose×weight in kilogram). Plasma glucose was kept at 30 mmol/l by continuous infusion of glucose, which was adjusted according to a bedside measurement of plasma glucose ever 5 minutes. At 45 minutes, 5 g L-arginine monohydrochloride was injected as a bolus during 30 seconds. Blood was sampled 15, 10 and 0 minutes before and 5, 10, 15, 20, 25, 30, 35, 40, 45, 47, 48, 49, 51, 53, 55, 60, 65, 70, 75 and 90 minutes after elevation of plasma glucose. The L-arginine was dissolved in 50 ml of sterilized water and dispensed into glass ampoules and stored at 4° C. until the day of the experiment. Blood was sampled into fluoride tubes for measurement of glucose and into chilled EDTA tubes with aprotinin (500 KIU/ml blood; Trasylol, Bayer, Leverkusen, Germany) for peptide analyses. Tubes were immediately cooled on ice and centrifuged within 20 minutes at 4° C., and plasma was stored at −20° C. until analysis.

[1] = glucagon test (1 mg I.V.), part one

Substance: glucagon
- Participants complaining of nausea [1]: 75%
- Participants complaining of reduced well-being [1]: 83%
- Participants complaining of nausea (glucagon-test, part two): 46%
- Participants complaining of reduced well-being (glucagon-test, part two): 54%
